Measurements as given in patent US12544388B2, “Compound for treating and/or preventing diseases caused by coronavirus and use thereof” (SHANGHAITECH UNIVERSITY, priority 2020, dated 2026).

Target: SARS-CoV-2 papain-like protease (Severe acute respiratory syndrome coronavirus 2, UniProt P0DTD1)
Format: biochemical
Settings: read-out: IC50, inhibitory activity on novel coronavirus papain-like protease

Cc1coc2c1C(=O)C(=O)c1c-2ccc2c(C)cccc12 [tanshinone I, Tanshinone I]
IC50: 2210 nM
